Activity calls are given as the source filed them.
Assays:
[1] = target: T1, Peroxisome proliferator-activated receptor delta (Homo sapiens) (UniProt Q03181); test: Displacement of fluormone pan-PPARgreen from GST-tagged human PPARdelta ligand binding domain at 10 uM by LanthaScreen TR-FRET competitive binding assay
T1 sequence (whole entry): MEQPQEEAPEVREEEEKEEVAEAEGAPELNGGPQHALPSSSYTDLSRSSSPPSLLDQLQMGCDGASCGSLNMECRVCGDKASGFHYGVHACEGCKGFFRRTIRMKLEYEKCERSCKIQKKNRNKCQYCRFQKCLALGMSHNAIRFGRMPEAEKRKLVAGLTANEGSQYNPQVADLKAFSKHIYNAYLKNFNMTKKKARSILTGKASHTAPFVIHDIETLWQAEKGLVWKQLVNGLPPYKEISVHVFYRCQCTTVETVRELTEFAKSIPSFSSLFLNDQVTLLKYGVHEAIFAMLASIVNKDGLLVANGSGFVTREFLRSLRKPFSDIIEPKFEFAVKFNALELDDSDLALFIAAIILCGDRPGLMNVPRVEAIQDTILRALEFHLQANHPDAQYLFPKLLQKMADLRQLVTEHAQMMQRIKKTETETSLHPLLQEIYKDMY

Chains of the proteins cited; added tags and fusions are not shown.
UniProt P55055, whole entry: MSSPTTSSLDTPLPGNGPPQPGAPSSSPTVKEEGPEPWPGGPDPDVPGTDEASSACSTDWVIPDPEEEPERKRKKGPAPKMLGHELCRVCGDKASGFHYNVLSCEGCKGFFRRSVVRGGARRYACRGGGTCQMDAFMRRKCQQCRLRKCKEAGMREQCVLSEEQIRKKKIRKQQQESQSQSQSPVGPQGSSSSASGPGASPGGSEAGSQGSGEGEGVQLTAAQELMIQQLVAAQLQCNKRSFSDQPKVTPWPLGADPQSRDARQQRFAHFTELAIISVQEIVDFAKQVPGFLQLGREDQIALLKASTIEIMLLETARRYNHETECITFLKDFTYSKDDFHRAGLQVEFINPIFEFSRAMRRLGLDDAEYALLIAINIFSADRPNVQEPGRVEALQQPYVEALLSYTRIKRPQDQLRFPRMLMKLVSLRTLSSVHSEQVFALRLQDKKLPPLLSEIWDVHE

[2] = target: T2, Peroxisome proliferator-activated receptor alpha (Homo sapiens) (UniProt Q07869); test: Displacement of fluormone pan-PPARgreen from GST-tagged human PPARalpha ligand binding domain at 10 uM by LanthaScreen TR-FRET competitive binding assay
T2 sequence (whole entry): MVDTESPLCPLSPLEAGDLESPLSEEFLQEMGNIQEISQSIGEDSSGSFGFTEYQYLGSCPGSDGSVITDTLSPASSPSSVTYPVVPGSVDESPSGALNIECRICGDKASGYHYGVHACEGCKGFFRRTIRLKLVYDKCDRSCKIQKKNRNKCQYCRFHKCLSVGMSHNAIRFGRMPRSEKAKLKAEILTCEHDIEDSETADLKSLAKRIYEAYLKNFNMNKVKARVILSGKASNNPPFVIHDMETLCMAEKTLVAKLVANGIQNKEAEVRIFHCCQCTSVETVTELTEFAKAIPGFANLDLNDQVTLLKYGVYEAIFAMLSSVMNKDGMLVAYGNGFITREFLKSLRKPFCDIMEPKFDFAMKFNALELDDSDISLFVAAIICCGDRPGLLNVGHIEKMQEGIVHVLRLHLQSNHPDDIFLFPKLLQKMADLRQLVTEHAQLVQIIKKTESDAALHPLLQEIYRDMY

[3] = target: T3, Bile acid receptor (Homo sapiens) (UniProt Q96RI1); test: Agonist activity at GST-tagged FXR ligand binding domain (unknown origin) at 10 uM LanthaScreen TR-FRET Coactivator assay
T3 sequence (whole entry): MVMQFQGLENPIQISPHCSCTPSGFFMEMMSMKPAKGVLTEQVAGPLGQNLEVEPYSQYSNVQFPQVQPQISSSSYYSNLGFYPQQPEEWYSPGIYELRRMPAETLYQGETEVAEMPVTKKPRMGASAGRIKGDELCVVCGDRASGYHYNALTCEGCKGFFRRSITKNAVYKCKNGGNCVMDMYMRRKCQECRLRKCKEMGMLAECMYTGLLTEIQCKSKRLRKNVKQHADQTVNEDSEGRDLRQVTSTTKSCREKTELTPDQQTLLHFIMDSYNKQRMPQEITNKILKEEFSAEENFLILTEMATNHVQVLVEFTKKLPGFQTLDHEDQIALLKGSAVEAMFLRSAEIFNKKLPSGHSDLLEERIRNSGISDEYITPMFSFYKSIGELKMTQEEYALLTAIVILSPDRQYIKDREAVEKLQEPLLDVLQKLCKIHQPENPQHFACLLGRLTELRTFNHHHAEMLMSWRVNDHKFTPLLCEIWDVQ

[4] = target: Oxysterols receptor LXR-beta (Homo sapiens) (UniProt P55055); test: Agonist activity at GST-tagged LXR-beta ligand binding domain (unknown origin) at 10 uM LanthaScreen TR-FRET Coactivator assay

Measured: Activity

COc1c(CC=C(C)C)c(=O)[nH]c2c(OC)c(O)ccc12
inactive: all assays above

— ChEMBL document CHEMBL5226363, “Alkaloids and Coumarins with Adiponectin-Secretion-Promoting Activities from the Leaves of Orixa japonica” (J Nat Prod, 2023)
